# uPA surface inh = blocks generation of uPA at the cell surface. cell surface uPA generation assay, qHTS. Potency, µM (top dose mostly 38.3 µM), without a hit: at the top dose activity change, negative = inhibition, hits mostly inhibitors. actives 0.31% (n = 330,000); active = well fitted inhibition curve with a large enough effect; inconclusive = small, poorly fitted or top-dose-only effect; inactive = no such curve, though single readings can be large or run the other way; tested in mouse RAW 264.7 cells; also: potency is read from the fitted curve at half-maximal effect; % is scaled to controls: 0 for no effect and ±100 for the full control effect; nearly all actives have a fitted effect of over 55% in size
# miR-21 reporter = raises the signal of a miR-21 reporter; HeLa miR-21 FLuc reporter, luciferase, 48 h; Potency, µM (top dose mostly 38.3 µM), for inactives: at the highest dose reporter change, positive = more light; AID 2288; 340,000 tested, under 10 active; active = well fitted rising curve with a large enough effect; inconclusive = small, poorly fitted or top-dose-only effect; inactive = no such curve, though single readings can be large or run the other way;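 note: % of control where 0% means no effect; miR-21 action dims this reporter so a rising signal means less miR-21 action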
#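 HeLa cells stably expressing CMV-driven firefly luciferase with a downstream miR-21 binding sequence, endogenously expressing miR-21, were treated with titrations (up to about 40uM final) for 48 hours at 37 degree Celsius. Luciferase luminescence was read after lysis.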
# TDP1 inh = blocks human tyrosyl-DNA phosphodiesterase 1; Q9NUW8; recombinant TDP1, AlphaScreen DNA substrate cleavage; Potency, µM (titrated, usually from 130 µM), for the others: at the top dose activity change, negative = inhibition, actives largely listed as inhibitors; actives 0.28% (n = 350,000); also: potency is read from the fitted curve at half-maximal effect; % is scaled to controls: 0 for no effect and ±100 for the full control effect; nearly all actives have a fitted effect of over 40% in size
#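 Compounds were preincubated with Tdp1 (1 nM final) for 15 min at room temperature before substrate (15 nM final) started a 5 min reaction; beads (10 ug/ml final) were then added for 10 min before AlphaScreen detection.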
# TDP1 cell CPT = growth inhibition of DT40 Tdp1-/-;hTDP1 cells with camptothecin (screen for TDP1 inhibitors); chicken DT40 Tdp1-/-;hTDP1 cells + 20 nM CPT, ATP luminescence, 48 h; actives 12% (n = 420,000); Potency, µM (series often up to 46.2 µM), for the others: at the top dose activity change, negative = growth inhibition, usual class: inhibitors; also: potency is read from the fitted curve at half-maximal effect; % is scaled to controls: 0 for no effect and ±100 for the full control effect; nearly all actives have a fitted effect of over 55% in size
#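 Cell growth measured by CellTiter-Glo luminescence after a minimum 48 h, 37 C compound exposure with 20 nM CPT in Tdp1-knockout DT40 cells stably expressing hTDP1, seeded 400/well; qHTS titration format.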
# DT40 TDP1 no CPT = qHTS for Inhibitors of human tyrosyl-DNA phosphodiesterase 1 (TDP1): qHTS in cells in absence of CPT; Potency, µM (top dose mostly 46.2 µM), for inactives: top-dose activity change, negative = growth inhibition, most hits filed as inhibitors; AID 686978, 2013; DT40 Tdp1-/- hTDP1 cells, no CPT, ATP luminescence, 48 h; actives 15% (n = 420,000); also: potency is read from the fitted curve at half-maximal effect; % is scaled to controls: 0 for no effect and ±100 for the full control effect; nearly all actives have a fitted effect of over 55% in size
#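 Cells were dispensed at 400 per well, compounds added by pin tool, plates incubated ≥48 hr at 37 °C, then CellTiter-Glo added for 30 min at room temperature before luminescence reading. Line: DT40 Tdp1-/- complemented with hTDP1; camptothecin omitted.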
# * marks the source's active call; other numbers are inactive results; ? = inconclusive; nt = no result given; ! = not active in a repeat. Hits are enriched below; roughly 16% of the tested compounds scored in any of these assays. Unless noted, calls follow the shape of the dose curve; as a rule, active = well fitted curve in the direction sought with a large enough effect; inconclusive = small, poorly fitted or top-dose-only effect, or another doubt; inactive = no such curve, though single readings can be large; an effect the other way counts as inactive or inconclusive.
1) O=[N+]([O-])/C(C=Nc1ccccc1O)=C\Nc1ccccc1O
2) Cc1ccc(-c2ccc(CN3C(C)C(=O)N(Cc4cn(CCC5OCCO5)nn4)CCS3(=O)=O)cc2)cc1 (stereo not drawn)
3) CC1C(=O)N(Cc2cn(CCC3OCCO3)nn2)CCS(=O)(=O)N1Cc1ccc(-c2ccc(Cl)cc2)cc1 (stereo not drawn)
4) CC1C(=O)N(Cc2cn(CCC3OCCO3)nn2)CCS(=O)(=O)N1Cc1ccc(-c2ccccc2)cc1 (stereo not drawn)
5) C=CCNC(=S)N/N=C/c1cn(C)c2ccccc12
6) Cc1nn(-c2ccccc2)cc1/C=N/O
7) Cn1cc(/C=N/NC(N)=S)c2ccccc21
8) Cc1nn(-c2ccccc2)cc1/C=N/NC(N)=S
9) Cc1cccc2cc(CN(Cc3ccco3)C(=O)N3CCCC3)c(=O)[nH]c12
10) CC1CN(C(=O)C2(C)CC2(Br)Br)CC(C)O1 (stereo not drawn)

Assay by compound | 1 | 2 | 3 | 4 | 5 | 6 | 7 | 8 | 9 | 10
uPA surface inh | ? | nt | nt | nt | 0.1% | 5.0% | 0.9% | -3.2% | nt | 2.2%
miR-21 reporter | -8.5% | nt | nt | nt | -2.0% | -11.4% | -10.8% | -24.0% | 1.2% | -0.6%
TDP1 inh | 4.0% | nt | nt | nt | nt | 4.0% | nt | -1.2% | 4.7% | 1.8%
TDP1 cell CPT | 8.2µM* | 16.4µM* | 3.66µM* | -29.3% | ? | -11.6% | 13µM* | 18.4µM* | nt | -4.2%
DT40 TDP1 no CPT | 16.4µM* | ? | 7.31µM* | ? | ? | -3.2% | 3.26µM* | ? | nt | -4.2%

11) O=C(CSc1nnc(CNc2ccc(F)cc2)o1)N1c2ccccc2Sc2ccccc21
12) CC(C)(C)N(Cc1ccccc1)C(=O)CSc1nnc(CNc2ccc(F)cc2)o1
13) O=C(CSc1nnc(CNc2ccc(F)cc2)o1)N1CCN(C(=O)c2ccco2)CC1
14) CC(C)C(=O)Nc1c(-c2ccc(Cl)cc2)c(=O)c2ccccc2n1C
15) O=C1[C@H]2[C@H](C=CC[C@H]2C(=O)N2CCN(c3ccccc3)CC2)CCN1Cc1ccc(Cl)c(Cl)c1
16) O=C1[C@H]2[C@H](C=CC[C@H]2C(=O)N2CCN(c3ccccc3)CC2)CCN1Cc1ccccc1
17) O=C(Nc1ccc(Cl)cc1Cl)[C@@H]1CC=C[C@@H]2CCN(Cc3ccccc3)C(=O)[C@@H]21
18) O=C(NCc1cccnc1)[C@@H]1CC=C[C@@H]2CCN(Cc3ccc(Cl)c(Cl)c3)C(=O)[C@@H]21
19) O=C([C@@H]1CC=C[C@@H]2CCN(C3CC3)C(=O)[C@@H]21)N1CCN(c2ccccc2)CC1
20) O=C(NCCc1ccccc1)[C@@H]1CC=C[C@@H]2CCN(C3CCCCC3)C(=O)[C@@H]21

Assay by compound | 11 | 12 | 13 | 14 | 15 | 16 | 17 | 18 | 19 | 20
uPA surface inh | nt | nt | 5.0% | -26.5% | 7.6% | 5.8% | nt | -16.4% | 7.3% | 9.0%
miR-21 reporter | 18.6% | 11.1% | -10.4% | 0.3% | nt | nt | nt | nt | nt | nt
TDP1 inh | 8.6% | 3.1% | 7.3% | nt | nt | nt | nt | nt | nt | nt
TDP1 cell CPT | 20.6µM* | 11.2µM* | ? | -0.7% | 16.4µM* | ? | 10µM* | ? | -9.0% | 20µM*!
DT40 TDP1 no CPT | 25.9µM* | ? | -15.4% | 11.7% | 18.4µM* | 14.1µM* | ? | ? | 4.1% | ?

# Two of these compounds, set out differently.
[13] O=C(CSc1nnc(CNc2ccc(F)cc2)o1)N1CCN(C(=O)c2ccco2)CC1
- uPA surface inh: 5.0%
- miR-21 reporter: -10.4%
- TDP1 inh: 7.3%
- TDP1 cell CPT: ?
- DT40 TDP1 no CPT: -15.4%
[14] CC(C)C(=O)Nc1c(-c2ccc(Cl)cc2)c(=O)c2ccccc2n1C
- uPA surface inh: -26.5%
- miR-21 reporter: 0.3%
- TDP1 inh: nt
- TDP1 cell CPT: -0.7%
- DT40 TDP1 no CPT: 11.7%

# More records follow:
21) O=C(Nc1ccccc1)[C@@H]1CC=C[C@@H]2CCN(C3CC3)C(=O)[C@@H]21
22) CCN(CC)c1ccc(/C=N/OCC(=O)Nc2cccc(C)c2)cc1
23) Clc1ccc(-c2nnc(NCCN3CCCC3)c3ccccc23)cc1
24) COc1ccc(CN2CC[C@H]3C=CC[C@@H](C(=O)Nc4ccc(Cl)c(C(F)(F)F)c4)[C@H]3C2=O)cc1OC
25) CCCCNC(=O)[C@@H]1CC=C[C@@H]2CCN(Cc3ccc(Cl)c(Cl)c3)C(=O)[C@@H]21
26) O=C(C[N+]1(CCO)CCOCC1)c1ccc(F)c2ccccc12
27) COCC(C)n1c(C)cc(C(=O)CN2C(=O)NC3(CCCCC3C)C2=O)c1C (stereo not drawn)
28) Cc1cc(-n2c(C)cc(C(=O)CN3C(=O)NC4(CCCCC4C)C3=O)c2C)no1 (stereo not drawn)

Assay by compound | 21 | 22 | 23 | 24 | 25 | 26 | 27 | 28
uPA surface inh | nt | -0.8% | 8.8% | -8.5% | 8.4% | nt | 0.4% | 9.7%
miR-21 reporter | nt | -4.8% | -5.7% | nt | nt | nt | -13.9% | -8.5%
TDP1 inh | nt | 6.7% | nt | nt | nt | nt | 4.2% | 6.2%
TDP1 cell CPT | -22.6% | ? | -22.7% | ? | 11.2µM* | -117.2% | ? | -18.9%
DT40 TDP1 no CPT | -6.4% | ? | -25.4% | 11.2µM* | 8.91µM* | ? | 20.6µM* | ?
